Columns and labels:
[1] = target: T1, NAD-dependent protein deacetylase sirtuin-3, mitochondrial (Homo sapiens) (UniProt Q9NTG7); assay: (§1) Modulation of human Sirt3 (118 to 399 residues) deacetylation activity under non-steady state assessed as substrate deacetylation at high enzyme concentration with [E]0/[NAD+]0 ratio of 0.6 at 10 uM incubated for 2 mins using MnSOD peptide as substrate in presence of NAD+ by HPLC-assay relative to control; settings: filed as modulator
T1 sequence (whole entry): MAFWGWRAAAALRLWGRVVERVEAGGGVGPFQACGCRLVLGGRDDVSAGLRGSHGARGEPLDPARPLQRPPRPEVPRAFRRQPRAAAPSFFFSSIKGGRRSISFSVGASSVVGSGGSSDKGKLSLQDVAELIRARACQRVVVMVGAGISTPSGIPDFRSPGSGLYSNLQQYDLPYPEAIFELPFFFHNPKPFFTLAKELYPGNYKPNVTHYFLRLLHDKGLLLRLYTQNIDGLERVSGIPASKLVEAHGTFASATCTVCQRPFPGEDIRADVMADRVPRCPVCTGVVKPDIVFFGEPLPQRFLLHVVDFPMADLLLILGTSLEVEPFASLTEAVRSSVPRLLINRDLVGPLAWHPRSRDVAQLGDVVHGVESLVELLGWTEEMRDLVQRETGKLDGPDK

[2] = target: T1, NAD-dependent protein deacetylase sirtuin-3, mitochondrial (Homo sapiens); assay: as §1, with “low” for “high”, “0.3” for “0.6”; settings: filed as modulator

Activity [1]: 122% | Activity [2]: 107%
Structure (SMILES): CCCCNC(=O)COc1ccc2c(c1)CCc1ccccc1C2NC(=O)CCCOc1cc([N+](=O)[O-])c(C(C)O)cc1OC (configuration not stated)

— ChEMBL document CHEMBL5214958, “Discovery of novel compounds as potent activators of Sirt3” (Bioorg Med Chem, 2022)
